# Values joined by “and” are separate entries in the source; they are usually repeats but may differ in a detail not shown here. Equal entries are not always repeated.
# Legend:
# Type in all cases: functional
# [1] = Selectivity index (D551/EV71) of the compound
# [2] = Selectivity index (RD/EV71) of the compound
# [3] = Selectivity index (W138/EV71) of the compound
structure (smiles),measurement,setting,value
O=C1N(CCCCCOc2ccc(-c3ccc(Cl)cc3)cc2)CCN1c1ccncc1,Selectivity index,[1],100 and 260
same,Selectivity index,[2],104 and 250
same,Selectivity index,[3],533 and 960
